Assay results published in PMC12332266 (Frontiers in Pharmacology, 2025).

Assays:
[1] = tested on: hiPSC-CM (iCell Cardiomyocytes^2); assay: RTCA CardioECR assessment (impedance and electrophysiology parameters); settings: 72-hour treatment, lowest concentration causing at least 20% change from baseline
Experimental: (§1) Culture media change was performed every 2 days.
After seeding on fibronectin-coated xCELLigence ePlates (Agilent Technologies, Inc. Santa Clara, CA, USA), iCell^2 CM were monitored continuously through impedance electrodes. The following impedance parameters were measured: Cell Index (CI, measure of cell “health” and monolayer integrity), beating rate (BR) and amplitude (CI Amplitude, magnitude of contraction). Electrophysiology-like parameters (Field Potential Duration (FPD), considered as a surrogate for QT in in vivo studies, and Spike Amplitude (SA), depolarization induced by Na^+ channel opening) were measured starting from day 4–6, following the monolayer formation. […] All RTCA CardioECR data were double normalized (DMSO control and the baseline) with no further statistical group comparison for the normalized parameters. The variability of the data within the treatment groups was assessed by standard deviation.

[2] = tested on: hiPSC-CM (iCell Cardiomyocytes^2); assay: Intracellular miRNA expression by RT-qPCR in hiPSC-CM pellets after 72-hour treatment; settings: for hsa-miR-7-5p fold change, intracellular / hsa-miR-29a-5p fold change, intracellular / hsa-miR-96-5p fold change, intracellular / hsa-miR-126-3p fold change, intracellular / hsa-miR-133b fold change, intracellular / hsa-miR-146b-5p fold change, intracellular / hsa-miR-182-5p fold change, intracellular / hsa-miR-185-3p fold change, intracellular / hsa-miR-187-3p fold change, intracellular / hsa-miR-208b-3p fold change, intracellular / hsa-miR-365a-5p fold change, intracellular / hsa-miR-[…] change, intracellular: 72 h
Experimental: as §1
Total RNA was extracted from hiPSC-CM using the miRNeasy 96 Kit (Qiagen, Hilden, Germany) following the manufacturer’s recommendations. After the extraction, RNA purity was assessed by NanoDrop™ 8000 Spectrophotometer (Thermo Fisher Scientific Inc.). 5–10 ng/μL of RNA per sample were reverse transcribed and pre-amplified by using the TaqMan™ Advanced miRNA cDNA Synthesis Kit (Thermo Fisher Scientific Inc.). The synthesized cDNA was used for RT-qPCR with selected TaqMan™ assays (Thermo Fischer Scientific Inc.). RT-qPCR was carried out following the Applied Biosciences TaqMan miRNA expression assay protocol on a ViiA7 instrument (Thermo Fisher Scientific, Inc.). […] Therefore, to maximize the number of drugs and concentrations, explored in the same study, we pooled the triplicates for intracellular profiling of miRNAs. Therefore, no statistical analysis was performed on the data of miRNA profiling in the pellets of hiPSC-CM.
Following RTCA CardioECR assessment, hiPSC-CM cell pellets were collected, and total RNA was extracted and purified to investigate miRNAs upregulation by RT-qPCR. […] For the initial assessment of intracellular miRNAs in 12 different treatments, encompassing various drug classes, we used a panel of 17 miRNAs, which we selected from the publicly available data focusing mainly on in vitro models and structural cardiotoxicants (Supplementary Table S2).

[3] = tested on: hiPSC-CM (iCell Cardiomyocytes^2); assay: miRNA in hiPSC-CM culture media by RT-qPCR at 24, 48 and 72 h post-treatment;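 note: medium RNA quantified by RT-qPCR, CT-values normalized to housekeeping miRNAs, compared against DMSO control, doses chosen from the MEC for CI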

C#Cc1cccc(Nc2ncnc3cc(OCCOC)c(OCCOC)cc23)c1 [Erlotinib]
Cell index (CI) MEC [1]: ND (ND – not detected, magnitude of change was lower than 20%)
hsa-miR-7-5p fold change, intracellular ([2]; 0.77 µM): 2.3
hsa-miR-29a-5p fold change, intracellular ([2]; 0.77 µM): 1.1
hsa-miR-96-5p fold change, intracellular ([2]; 0.77 µM): 1.1
hsa-miR-126-3p fold change, intracellular ([2]; 0.77 µM): 2.0
hsa-miR-133b fold change, intracellular ([2]; 0.77 µM): 0.9
hsa-miR-146b-5p fold change, intracellular ([2]; 0.77 µM): 4.5
hsa-miR-182-5p fold change, intracellular ([2]; 0.77 µM): 0.9
hsa-miR-185-3p fold change, intracellular ([2]; 0.77 µM): 1.1
hsa-miR-187-3p fold change, intracellular ([2]; 0.77 µM): 1.1
hsa-miR-208b-3p fold change, intracellular ([2]; 0.77 µM): 4.5
hsa-miR-365a-5p fold change, intracellular ([2]; 0.77 µM): 0.1
hsa-miR-7-5p fold change, intracellular ([2]; 7.7 µM): 3.6
hsa-miR-29a-5p fold change, intracellular ([2]; 7.7 µM): 1.0
hsa-miR-96-5p fold change, intracellular ([2]; 7.7 µM): 0.5
hsa-miR-126-3p fold change, intracellular ([2]; 7.7 µM): 0.9
hsa-miR-133b fold change, intracellular ([2]; 7.7 µM): 0.7
hsa-miR-146b-5p fold change, intracellular ([2]; 7.7 µM): 0.2
hsa-miR-182-5p fold change, intracellular ([2]; 7.7 µM): 2.6
hsa-miR-185-3p fold change, intracellular ([2]; 7.7 µM): 4.6
hsa-miR-187-3p fold change, intracellular ([2]; 7.7 µM): 1.1
hsa-miR-208b-3p fold change, intracellular ([2]; 7.7 µM): 1.0
hsa-miR-365a-5p fold change, intracellular ([2]; 7.7 µM): 2.1
hsa-miR-126-3p fold change, culture media ([3]; 7.7 µM, 24h): 1.5
hsa-miR-208b-3p fold change, culture media ([3]; 7.7 µM, 24h): 1.4
hsa-miR-[…] change, culture media ([3]; 7.7 µM, 24h): 1.1
hsa-miR-208b-3p fold change, culture media ([3]; 7.7 µM, 48h): 1.1
hsa-miR-[…] change, culture media ([3]; 7.7 µM, 48h): 0.5
hsa-miR-133b fold change, culture media ([3]; 7.7 µM, 72 h): 5.6
hsa-miR-208b-3p fold change, culture media ([3]; 7.7 µM, 72 h): 0.5
hsa-miR-[…] change, culture media ([3]; 7.7 µM, 72 h): 0.4
hsa-miR-133b in culture media, in words ([3]; 24, 48, 72 h, doxorubicin 0.1 μM, arsenic trioxide 0.48 μM, milrinone 3 μM, vincristine 0.3 μM, vinblastine 0.3 μM, erlotinib 7.7 μM): increase that was not statistically significant

Cc1ccc(NC(=O)c2ccc(CN3CCN(C)CC3)cc2)cc1Nc1nccc(-c2cccnc2)n1 [Imatinib]
miRNAs upregulated at the MEC overall (hiPSC-CM pellet) [2]: miR-96-5p, miR-126-3p, miR-133b, miR-185-3p

CS(=O)(=O)CCNCc1ccc(-c2ccc3ncnc(Nc4ccc(OCc5cccc(F)c5)c(Cl)c4)c3c2)o1 [Lapatinib]
Cell index (CI) MEC [1]: ND (ND – not detected, magnitude of change was lower than 20%)
hsa-miR-7-5p fold change, intracellular ([2]; 0.1 µM): 0.3
hsa-miR-29a-5p fold change, intracellular ([2]; 0.1 µM): 0.1
hsa-miR-126-3p fold change, intracellular ([2]; 0.1 µM): 2.1
hsa-miR-146b-5p fold change, intracellular ([2]; 0.1 µM): 3.2
hsa-miR-182-5p fold change, intracellular ([2]; 0.1 µM): 3.2
hsa-miR-185-3p fold change, intracellular ([2]; 0.1 µM): 0.9
hsa-miR-187-3p fold change, intracellular ([2]; 0.1 µM): 4.5
hsa-miR-208b-3p fold change, intracellular ([2]; 0.1 µM): 1.0
hsa-miR-365a-5p fold change, intracellular ([2]; 0.1 µM): 0.5
hsa-miR-[…] change, intracellular ([2]; 0.1 µM): 0.6
hsa-miR-7-5p fold change, intracellular ([2]; 0.3 µM): 0.5
hsa-miR-126-3p fold change, intracellular ([2]; 0.3 µM): 50.7
hsa-miR-146b-5p fold change, intracellular ([2]; 0.3 µM): 12.9
hsa-miR-182-5p fold change, intracellular ([2]; 0.3 µM): 1.0
hsa-miR-185-3p fold change, intracellular ([2]; 0.3 µM): 0.6
hsa-miR-187-3p fold change, intracellular ([2]; 0.3 µM): 2.7
hsa-miR-208b-3p fold change, intracellular ([2]; 0.3 µM): 1.6
hsa-miR-[…] change, intracellular ([2]; 0.3 µM): 1.1
hsa-miR-7-5p fold change, intracellular ([2]; 1 µM): 0.3
hsa-miR-126-3p fold change, intracellular ([2]; 1 µM): 4.2
hsa-miR-146b-5p fold change, intracellular ([2]; 1 µM): 1.2
hsa-miR-182-5p fold change, intracellular ([2]; 1 µM): 0.9
hsa-miR-185-3p fold change, intracellular ([2]; 1 µM): 0.9
hsa-miR-187-3p fold change, intracellular ([2]; 1 µM): 2.0
hsa-miR-208b-3p fold change, intracellular ([2]; 1 µM): 1.2
hsa-miR-365a-5p fold change, intracellular ([2]; 1 µM): 1.9
hsa-miR-[…] change, intracellular ([2]; 1 µM): 0.6
hsa-miR-7-5p fold change, intracellular ([2]; 3 µM): 0.7
hsa-miR-126-3p fold change, intracellular ([2]; 3 µM): 3.4
hsa-miR-146b-5p fold change, intracellular ([2]; 3 µM): 4.0
hsa-miR-182-5p fold change, intracellular ([2]; 3 µM): 0.4
hsa-miR-185-3p fold change, intracellular ([2]; 3 µM): 4.3
hsa-miR-187-3p fold change, intracellular ([2]; 3 µM): 3.9
hsa-miR-208b-3p fold change, intracellular ([2]; 3 µM): 1.6
hsa-miR-[…] change, intracellular ([2]; 3 µM): 0.8

CCN(CC)CCNC(=O)c1c(C)[nH]c(/C=C2\C(=O)Nc3ccc(F)cc32)c1C [Sunitinib]
intracellular miRNA upregulation in hiPSC-CM, in words ([2]; 72-hour treatment, four concentrations per drug): smallest fold change
miRNAs upregulated at the MEC overall (hiPSC-CM pellet) ([2]; fold change ≥2, 72 h): miR-146b-5p

Where two headings read alike, the source gives them in different places.
